Earlier results in patent US20130333059A1, “HOX COMPOSITIONS AND METHODS” (THE JOHNS HOPKINS UNIVERSITY, priority 2006, published 2013).

Conditions: cited from earlier work

Question: Which “response to Iressa, ER-negative breast cancer patient with high levels of EGFR expression” value (preliminary data from two independent clinical trials) does the source give for COc1cc2ncnc(Nc3ccc(F)c(Cl)c3)c2cc1OCCCN1CCOCC1 [gefitinib] here?
Answer: Its value is “poor response”.

Question: And the “response to Iressa, ER-positive patients with a low to medium level expression of EGFR” value (two thirds of ER-positive patients, two independent clinical trials)?
Answer: Its value is “good response”.
